In US12065428B2, “Anti-viral compounds” (Aligos Therapeutics, Inc., priority 2021, dated 2024):
Where two headings read alike, the source gives them in different places.

Protein sequences, listed by entry. Tags and fused reporters are not part of them. Residues count along the entry.
UniProt P03303, 1538-1719: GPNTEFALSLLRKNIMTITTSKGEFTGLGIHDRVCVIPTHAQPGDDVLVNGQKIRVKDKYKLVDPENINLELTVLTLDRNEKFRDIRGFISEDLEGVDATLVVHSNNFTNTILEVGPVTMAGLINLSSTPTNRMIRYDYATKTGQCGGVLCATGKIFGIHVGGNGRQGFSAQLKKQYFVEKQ

Molecular target: T1, HRV3C (Human rhinovirus 14, UniProt P03303)
T1 construct: SARS-Cov-2 3CLpro and HRV3C Duplex Assay
Assay: biochemical

SMILES: O=C(NC1CC1)C(=O)[C@H](C[C@@H]1CCNC1=O)NC(=O)[C@@H]1CC2(CCN1C(=O)[C@H]1C[C@@]13CCCc1ccccc13)CC2 (relative stereo) [Compound 34A, (S)—N—((S)-4-(cyclopropylamino)-3,4-dioxo-1-((S)-2-oxopyrrolidin-3-yl)butan-2-yl)-6-((1S*,2S*)-3′,4′-dihydro-2′H-spiro[cyclopropane-1,1′-naphthalene]-2-carbonyl)-6-azaspiro[2.5]octane-5-carboxamide]
- IC50: > 10 µM

SMILES: O=C(NC1CC1)C(=O)[C@H](C[C@@H]1CCNC1=O)NC(=O)[C@@H]1CC2(CCN1C(=O)[C@@H]1C[C@]13CCCc1ccccc13)CC2 (relative stereo) [Compound 34B]
- IC50 (HRV3C, duplex assay, 30 mins preincubation, class symbols, read-out: HRV IC50): 2 to 20 µM
